Reference: PubChem BioAssay AID1996
Converted amounts (≈) assume the structure as drawn.

Details: buffer; pH 7.4; 200.0 µM

| SMILES | solubility kinetic |
| --- | --- |
| O=C(O)CCCC[C@@H]1SC[C@@H]2NC(=O)N[C@@H]21 | > 36.6 µg/mL |
| Cc1ccc(C(=O)Nc2nc(-c3ccccn3)cs2)s1 | 4.6 µg/mL (≈ 15.3 µM) |
